The values that follow are results of earlier work, collected in patent US20250114344A1, “COMBINATORIAL PHARMACOTHERAPY FOR THE RESTORATION OF NEURO-FUNCTION AND COMBINATORIAL PHARMACOLOGICAL COMPOSITION THEREFORE” (Neuro-Innovators, LLC., priority 2022, published 2025).

The target in the data set is angiotensin II receptor type 1 (AT1) (Homo sapiens, UniProt P30556). Particulars: AT1 than AT2.

In the case of `CCCc1nc2c(C)cc(-c3nc4ccccc4n3C)cc2n1Cc1ccc(-c2ccccc2C(=O)O)cc1` [Telmisartan], the “binding affinity for AT1 relative to AT2” value is 3000 times.
